We go through one compound from article PMC9234962, “Optimization of Peptide Linker-Based Fluorescent Ligands for the Histamine H1 Receptor” (Journal of Medicinal Chemistry, 2022).

By UniProt entry, the sequences of proteins in these tests, tags left out. Where a name states a change or a piece, a line headed by the entry shows the natural chain unless it says otherwise.
UniProt Q9Y5N1: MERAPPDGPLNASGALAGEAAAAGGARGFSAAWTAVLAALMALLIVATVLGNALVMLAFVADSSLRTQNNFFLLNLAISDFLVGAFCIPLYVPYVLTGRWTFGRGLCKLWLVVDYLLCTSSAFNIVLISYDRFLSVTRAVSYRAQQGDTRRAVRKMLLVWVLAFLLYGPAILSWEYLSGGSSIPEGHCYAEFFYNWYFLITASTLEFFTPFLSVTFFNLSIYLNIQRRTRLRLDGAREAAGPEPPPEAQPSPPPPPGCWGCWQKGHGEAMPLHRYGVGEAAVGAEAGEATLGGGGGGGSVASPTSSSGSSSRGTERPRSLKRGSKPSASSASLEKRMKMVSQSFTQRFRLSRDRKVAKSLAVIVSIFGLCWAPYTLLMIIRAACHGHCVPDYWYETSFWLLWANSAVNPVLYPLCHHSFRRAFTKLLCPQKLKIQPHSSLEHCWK

In assay [1] the target is T1, Nluc-H3R (Homo sapiens, UniProt Q9Y5N1).
T1 construct: expressed in transfected cells; host or cells: HEK293T, transient transfection; sonicated cell homogenates
Put plainly: NanoBRET saturation binding assay on Nluc-H3R HEK293T cell homogenates. Conditions: highest concentration 1 μM for 31a, 31k. On the procedure: HEK293T cells were transiently transfected with 2.5 μg of cDNA encoding Nluc-H3R or Nluc-H4R and 2.5 μg of empty pcDEF3 vector using the polyethylenimine method as described previously in Mocking et al.[23] Two days after transfection, cells were collected in phosphate-buffered saline (PBS) and centrifuged at 1900g for 10 min and the cell pellet was stored at −20°C until the day of experiment. The pellet was resuspended in HBSS buffer, and cells were disrupted using a Branson sonifier 250 (Boom bv., Meppel, the Netherlands) prior to use in a NanoBRET binding assay.
For cell membrane NanoBRET saturation binding experiments, cell homogenates expressing the Nluc-H3R or Nluc-H4R were incubated with the required concentrations of fluorescent ligand in the absence and presence of 10 μM clobenpropit in HBSS for 2 h at 25 °C. For all NanoBRET binding experiments, 10 μM NanoGlo substrate (Promega) was added to each well after the incubation period and fluorescence and luminescence emissions were measured after 5 min.
Total and non-specific saturation binding curves from NanoBRET saturation binding assay were fitted simultaneously using eq 1: [drawing 4] 1 where Bmax is the maximal specific binding, [B] is the concentration of fluorescent ligand in nM, KD is the equilibrium dissociation constant in nM, M is the slope of the non-specific component, and C is the intercept with the Y axis.
A general note: In BRET a luciferase serves as donor, and the signal depends on an acceptor being close.

Assay [2] concerns the target T1, Nluc-H3R. On the set-up: method as in PMID 30249614. The settings on record: literature value, cited from earlier work.

Read-outs that look alike come from different tables or passages of the source.

Take `NC(=NCc1ccc(Cl)cc1)SCCCc1cnc[nH]1` [CA200843, reference compound]: the Kd in assay [1] was 44 nM; in assay [2] (read-out: binding affinity at Nluc-H3R reported in literature), 13 nM. Further, in assay [1] (mean ± SEM, three experiments), the “Nluc-H3R pKD” value amounted to 7.36 ± 0.05. Besides, the pKD (usually −log10 of the KD, conventionally taken in molar units) at Nluc-H3R reported in literature in assay [2] is reported as 7.89.
